Experimental data from ChEMBL document CHEMBL3817845, “Development of CNS multi-receptor ligands: Modification of known D2 pharmacophores” (Bioorg Med Chem, 2016).

Chains of the proteins cited; added tags and fusions are not shown.
UniProt P28223, whole entry: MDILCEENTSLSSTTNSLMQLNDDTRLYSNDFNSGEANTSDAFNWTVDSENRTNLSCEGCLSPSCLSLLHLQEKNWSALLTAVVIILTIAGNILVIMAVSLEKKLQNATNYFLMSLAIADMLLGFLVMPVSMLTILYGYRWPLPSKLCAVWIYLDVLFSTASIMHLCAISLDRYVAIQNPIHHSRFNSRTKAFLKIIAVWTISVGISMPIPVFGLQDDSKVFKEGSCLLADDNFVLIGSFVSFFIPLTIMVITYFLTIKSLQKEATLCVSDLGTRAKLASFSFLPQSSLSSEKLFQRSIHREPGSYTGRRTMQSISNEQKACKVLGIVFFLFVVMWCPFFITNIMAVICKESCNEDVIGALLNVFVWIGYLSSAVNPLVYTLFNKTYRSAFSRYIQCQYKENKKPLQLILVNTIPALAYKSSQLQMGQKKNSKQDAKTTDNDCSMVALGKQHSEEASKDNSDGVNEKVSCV

Target: 5-hydroxytryptamine receptor 2A (Homo sapiens, UniProt P28223)
Assay: Displacement of [3H]Ketanserin from human recombinant 5HT2A receptor incubated for […] by microbeta scintillation counting method

Structure (SMILES)	Ki [nM]
O=C1NCN(c2ccccc2)C12CCN(CCCCc1c[nH]c3ccccc13)CC2	982
O=C1NCN(c2ccccc2)C12CCN(CCCCc1nc3cc(Cl)ccc3s1)CC2	1120
